We go through one molecule from PMC7865483, “Regulation of the CoA Biosynthetic Complex Assembly in Mammalian Cells” (International Journal of Molecular Sciences, 2021).

By UniProt entry, the sequences of proteins in these tests, tags left out. Where a name states a change or a piece, a line headed by the entry shows the natural chain unless it says otherwise.
UniProt Q8TE04: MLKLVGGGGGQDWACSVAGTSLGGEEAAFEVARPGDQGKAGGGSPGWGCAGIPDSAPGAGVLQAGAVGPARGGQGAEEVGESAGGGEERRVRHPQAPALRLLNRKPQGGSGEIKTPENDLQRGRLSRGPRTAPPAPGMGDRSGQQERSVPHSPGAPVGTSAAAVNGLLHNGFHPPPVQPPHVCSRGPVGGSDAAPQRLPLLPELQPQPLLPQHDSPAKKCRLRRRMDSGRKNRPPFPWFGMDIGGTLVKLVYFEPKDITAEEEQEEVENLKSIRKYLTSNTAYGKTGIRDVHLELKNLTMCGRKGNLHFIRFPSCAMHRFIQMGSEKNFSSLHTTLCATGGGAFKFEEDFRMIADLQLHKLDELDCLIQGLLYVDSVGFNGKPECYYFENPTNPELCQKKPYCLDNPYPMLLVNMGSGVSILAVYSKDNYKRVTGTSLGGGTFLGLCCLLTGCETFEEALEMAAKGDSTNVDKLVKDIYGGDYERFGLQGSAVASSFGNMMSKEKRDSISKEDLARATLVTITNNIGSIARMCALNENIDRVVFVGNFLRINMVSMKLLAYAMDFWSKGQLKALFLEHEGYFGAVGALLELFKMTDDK

This assay has as its target T1, Pank1 (pantothenate kinase 1), endogenous in A549 cells (human (endogenous in A549), UniProt Q8TE04 1-598).
T1 construct: pantothenate kinase 1, endogenous in the human lung cancer cell line A549; source: endogenous, A549 cells (fixed cells for PLA)
Description: proximity ligation; in situ PLA (Duolink) on fixed A549 cells, endogenous proteins; cells serum-starved for 24 h, or serum-starved and then treated with 500 μM H2O2. Particulars: partners not purified.

B1: 4′-phosphopantothenoylcysteine decarboxylase (PPCDC) (enzyme, human (endogenous in HEK293 and A549), UniProt Q96CD2 1-204, looked up)
chain: MEPKASCPAAAPLMERKFHVLVGVTGSVAALKLPLLVSKLLDIPGLEVAVVTTERAKHFYSPQDIPVTLYSDADEWEIWKSRSDPVLHIDLRRWADLLLVAPLDANTLGKVASGICDNLLTCVMRAWDRSKPLLFCPAMNTAMWEHPITAQQVDQLKAFGYVEIPCVAKKLVCGDEGLGAMAEVGTIVDKVKEVLFQHSGFQQS
For B1, the “fold increase of the PLA signal after stress treatments, against control conditions” value was roughly 10 fold.
